The values that follow come from patent US8163909B2, “Substituted hydroxyethyl amine compounds as beta-secretase modulators and methods of use” (Amgen Inc., priority 2007, dated 2012).

Chains of the proteins cited; added tags and fusions are not shown. Residues count along the entry.
UniProt P10635, whole entry: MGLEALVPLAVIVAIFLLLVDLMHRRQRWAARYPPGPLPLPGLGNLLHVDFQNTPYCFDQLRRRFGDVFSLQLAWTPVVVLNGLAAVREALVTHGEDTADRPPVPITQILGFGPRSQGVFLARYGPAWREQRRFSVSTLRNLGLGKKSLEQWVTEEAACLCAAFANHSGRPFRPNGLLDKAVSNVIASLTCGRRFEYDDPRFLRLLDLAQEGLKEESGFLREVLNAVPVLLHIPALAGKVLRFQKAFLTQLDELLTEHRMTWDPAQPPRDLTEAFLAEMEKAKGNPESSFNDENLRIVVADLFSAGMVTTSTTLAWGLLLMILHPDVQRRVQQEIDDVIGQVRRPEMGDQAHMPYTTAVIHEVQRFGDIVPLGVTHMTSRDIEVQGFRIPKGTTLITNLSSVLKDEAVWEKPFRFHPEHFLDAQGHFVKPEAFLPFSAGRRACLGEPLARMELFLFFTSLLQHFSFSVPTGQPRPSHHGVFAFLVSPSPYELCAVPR
UniProt P56817, 46-501 limits assumed: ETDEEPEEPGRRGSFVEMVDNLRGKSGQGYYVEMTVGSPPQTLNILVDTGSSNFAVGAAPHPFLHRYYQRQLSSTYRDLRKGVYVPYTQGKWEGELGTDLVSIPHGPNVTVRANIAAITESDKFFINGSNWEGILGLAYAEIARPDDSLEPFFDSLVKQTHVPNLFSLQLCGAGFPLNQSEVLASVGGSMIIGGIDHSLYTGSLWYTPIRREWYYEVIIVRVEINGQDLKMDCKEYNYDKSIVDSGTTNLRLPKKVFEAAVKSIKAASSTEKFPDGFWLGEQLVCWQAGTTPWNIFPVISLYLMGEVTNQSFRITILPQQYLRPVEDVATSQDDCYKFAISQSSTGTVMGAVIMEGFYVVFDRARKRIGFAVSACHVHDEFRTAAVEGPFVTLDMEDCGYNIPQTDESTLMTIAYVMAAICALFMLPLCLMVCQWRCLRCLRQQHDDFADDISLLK
UniProt P08684, 2-503 limits assumed: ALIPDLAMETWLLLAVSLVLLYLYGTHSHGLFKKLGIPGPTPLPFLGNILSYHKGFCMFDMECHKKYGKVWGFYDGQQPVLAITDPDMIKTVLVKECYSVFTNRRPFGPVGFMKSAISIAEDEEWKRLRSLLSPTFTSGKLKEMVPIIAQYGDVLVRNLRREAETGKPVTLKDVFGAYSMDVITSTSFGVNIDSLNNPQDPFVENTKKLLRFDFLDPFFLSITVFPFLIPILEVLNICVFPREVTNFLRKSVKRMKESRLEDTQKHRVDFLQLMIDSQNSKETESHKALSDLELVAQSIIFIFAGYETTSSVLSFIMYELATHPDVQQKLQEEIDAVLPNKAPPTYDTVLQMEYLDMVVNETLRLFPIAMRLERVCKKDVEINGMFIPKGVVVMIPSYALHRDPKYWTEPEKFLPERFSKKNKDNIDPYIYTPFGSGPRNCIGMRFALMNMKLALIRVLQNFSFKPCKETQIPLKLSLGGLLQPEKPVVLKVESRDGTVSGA

Each structure is given as a SMILES string. Read-outs that look alike come from different tables or passages of the source.

For data set [1], the system named is Aβ40 in conditioned medium of cells stably expressing Amyloid Precursor Protein (APP). As to the kind of experiment: In vitro BACE cell-based assay (Aβ40 in conditioned medium, sandwich ELISA).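 Note: compounds added as a dilution series, secreted peptide quantified by europium time-resolved fluorescence readout, potency fitted from percent of control versus compound concentration.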 Particulars: read-out: HEK cell assay. A general note: An ELISA detects its analyte on a solid surface through an enzyme-linked reagent.
Data set [2] in a line: Microsomal stability assay, rat liver microsomes.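 Note: rat liver microsomes (0.25 mg/mL) with about 1 µM compound plus 1 mM NADPH, pH 7.4, 37 °C for 30 min, parent left measured by LC-MS/MS against 0 min.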 It counts as in vitro ADME. (Microsomes from liver hold many membrane-bound enzymes, among them those of drug oxidation.)
Data set [3] deals with CYP2D6 (Homo sapiens, UniProt P10635). The data set is described as follows: CYP2D6 inhibition assay (bufuralol, pooled human liver microsomes). It counts as in vitro ADME. Particulars: read-out: 2D6 IC50.
Data set [4] can be described thus: Microsomal stability assay, human liver microsomes.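 Note: pooled human liver microsomes at 0.25 mg/mL with 1 µM compound and NADPH at 37 °C, pH 7.4, for 30 min, unchanged parent quantified by LC-MS/MS against the 0 min sample.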 The format is in vitro ADME.
Data set [5] has as its target Beta Secretase enzyme (BACE) (Homo sapiens, UniProt P56817). As to the kind of experiment: In vitro enzymatic BACE FRET (fluorescence resonance energy transfer) assay.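 Note: fluorescence read after 1 h with 50 nM quenched peptide substrate spanning the BACE cleavage site, in pH 4.2 acetate buffer containing 10% DMSO and nonionic detergent.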 The format is biochemical. Particulars: read-out: BACE1 FRET assay.
In data set [6] the target is CYP3A (Homo sapiens, UniProt P08684). Particulars: read-out: 3A4 IC50.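 Note: inhibition of CYP3A-mediated 1-hydroxymidazolam formation after 10 min incubation with NADPH, quantified by HPLC MS relative to metabolite produced without test compound.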

As to `COCC(=O)N[C@@H](Cc1cc(F)cc(-c2nccs2)c1)[C@H](O)CN[C@H]1CC2(CC(C)C2)Oc2ncc(CC(C)(C)C)cc21` (some centres unmarked), the IC50 in data set [1] (HEK cell-based assay IC50) was 0.02 µM; in data set [3] (CYP2D6 inhibition) it was 600 nM; in data set [5] (BACE enzyme assay IC50), 0.005 µM; in data set [6] (CYP3A4 inhibition), not above 30 nM. In addition, the “RLM” value in data set [2] (rat liver microsomes) amounted to 111 µL/min/mg. Besides, in data set [4] (human liver microsomes), the “HLM” value came to 50 µL/min/mg.
Turning to `COCC(=O)N[C@@H](Cc1cc(F)cc(-c2nccs2)c1)[C@H](O)CN[C@H]1C[C@]2(C[C@H](OC)C2)Oc2ncc(CC(C)(C)C)cc21`, the IC50 in data set [1] (HEK cell-based assay IC50) worked out at 0.014 µM; in data set [3] (CYP2D6 inhibition), 3100 nM; in data set [5] (BACE enzyme assay IC50), 0.012 µM; in data set [6] (CYP3A4 inhibition) it was 500 nM. For the same molecule, in data set [2] (rat liver microsomes), the “RLM” value was 426 µL/min/mg. Besides, the “HLM” value in data set [4] (human liver microsomes) stood at 190 µL/min/mg.
Consider `COc1cc(C[C@H](NC(=O)[C@@H](C)OC)[C@H](O)CN[C@H]2CC3(CCC3)Oc3ncc(CC(C)(C)C)cc32)ccn1`, for which the IC50 in data set [1] (HEK cells) came to 0.028 µM; in data set [3] (CYP enzyme inhibition) it was 3000 nM; in data set [5] (BACE enzyme assay) it was 0.02 µM; in data set [6] (CYP enzyme inhibition) it was 1000 nM. Besides, the “RLM” value in data set [2] (rat liver microsomal data) was 125 µL/min/mg. Further, the “HLM” value in data set [4] (human liver microsomal data) was 194 µL/min/mg.
Consider `CO[C@H](C)C(=O)N[C@@H](Cc1cc(F)cc(-c2nccs2)c1)[C@H](O)CN[C@H]1C[C@]2(C[C@H](OC)C2)Oc2ncc(CC(C)(C)C)cc21`, for which the IC50 in data set [1] (HEK cell-based assay IC50) came to 0.027 µM; in data set [3] (CYP2D6 inhibition) it was 1700 nM; in data set [5] (BACE enzyme assay IC50), 0.016 µM; in data set [6] (CYP3A4 inhibition) it was 300 nM. The “RLM” value in data set [2] (rat liver microsomes) was determined as 497 µL/min/mg. For the same molecule, the “HLM” value in data set [4] (human liver microsomes) stood at 192 µL/min/mg.
In the case of `CC(C)(C)Cc1cnc2c(c1)[C@@H](NC[C@@H](O)[C@H](Cc1cc(F)cc(-c3nccs3)c1)NC(=O)C1CC1)CC1(CCC1)O2`, the IC50 in data set [1] (cell-based assay, HEK cells, IC50's in uM) amounted to 0.024 µM; in data set [5] (BACE enzyme assay, IC50's in uM), 0.008 µM; in data set [6] (CYP enzyme inhibition), 200 nM. The molecule also displayed an RLM in data set [2] (rat liver microsomal data) of 74 µL/min/mg. The HLM in data set [4] (human liver microsomal data) is 62 µL/min/mg.
For `CC(=O)N[C@@H](Cc1cccc(F)c1)[C@H](O)CN[C@@H]1CC2(CCC2)Oc2c1cc(CC(C)(C)C)nc2-n1ccnc1`, the IC50 in data set [1] (HEK cells) amounted to 1.95 µM; in data set [3] (CYP enzyme inhibition) it was 1700 nM; in data set [5] (BACE enzyme assay) it was 1.74 µM; in data set [6] (CYP enzyme inhibition), 100 nM. Also, the “RLM” value in data set [2] (rat liver microsomal data) was determined as 286 µL/min/mg. Also, the “HLM” value in data set [4] (human liver microsomal data) came out at 50 µL/min/mg.
Take `COCC(=O)N[C@@H](Cc1cc(F)cc(-c2nccs2)c1)[C@H](O)CN[C@H]1C[C@]2(C[C@H](O)C2)Oc2ncc(CC(C)(C)C)cc21`: the IC50 is 0.005 µM in data set [1] (HEK cell-based assay IC50), 11200 nM in data set [3] (CYP2D6 inhibition), 0.006 µM in data set [5] (BACE enzyme assay IC50) and 600 nM in data set [6] (CYP3A4 inhibition). Moreover, the “RLM” value in data set [2] (rat liver microsomes) came out at 199 µL/min/mg. In data set [4] (human liver microsomes), the “HLM” value turned out to be 86 µL/min/mg.
